Assay results taken from US10806913B2, “Methods for better delivery of active agents to tumors” (Sorrento Therapeutics, Inc., priority 2015, dated 2020).

System: JIMT-1 tumors
Assay: Delivery of trastuzumab to xenograft tumors via administration to the skin
Assay type: in vivo, mice
Experimental: The ability to deliver trastuzumab (an anti-cancer drug) to tumors via administration to the skin was tested in a mouse xenograft tumor model. The HER-2 positive JIMT-1 human breast cancer cell line was used to generate xenograft tumors in mice. An array of needles having a nanotopography surface was fabricated on a patch and applied to the dorsal surface of mice presenting with tumors. These mice were then administered different amounts of trastuzumab at different administration rates to the skin and the concentration of trastuzumab in tumors was assessed.

trastuzumab
concentration of trastuzumab in tumors (0.22 mg to the skin at 100 μ1/hr compared to 2 mg i.v., FIG. 8): higher concentrations | efficacy in treating tumors (areas of tumor necrosis) (skin administration compared to higher doses given intravenously, FIG. 9A-B): greater or equivalent efficacy
